# Earlier results in PMC4463590.
# Target: cyclin A (Homo sapiens) (UniProt P20248)
substance,measurement,value
CDK2 (from UniProt P24941),Kd,600 nM
